Reference: PubChem BioAssay AID624126 (The Scripps Research Institute Molecular Screening Center, 2012)
The entries are a selection whose mix differs from that of the whole data set. Active and inactive are the calls of the source.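 How the source made its calls: active means activation above its plate's cutoff, the mean activation of sample wells plus 3 SD; inactive means the rest.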

The chains behind the UniProt entries cited, without tags or fusion partners.
UniProt P08173, whole entry: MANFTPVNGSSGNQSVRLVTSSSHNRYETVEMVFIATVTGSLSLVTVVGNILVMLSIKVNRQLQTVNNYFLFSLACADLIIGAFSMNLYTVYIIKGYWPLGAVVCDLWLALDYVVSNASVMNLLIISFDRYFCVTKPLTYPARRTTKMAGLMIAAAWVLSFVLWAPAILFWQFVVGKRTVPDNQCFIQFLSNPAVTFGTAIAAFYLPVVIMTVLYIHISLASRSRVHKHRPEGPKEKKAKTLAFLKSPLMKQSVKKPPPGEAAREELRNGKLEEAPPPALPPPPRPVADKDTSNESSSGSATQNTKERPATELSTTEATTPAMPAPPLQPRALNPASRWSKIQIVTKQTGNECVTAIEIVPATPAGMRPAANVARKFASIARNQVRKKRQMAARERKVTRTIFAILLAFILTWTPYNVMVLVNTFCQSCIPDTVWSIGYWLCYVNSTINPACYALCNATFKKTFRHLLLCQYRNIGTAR

Target: Muscarinic acetylcholine receptor M4 (Homo sapiens) (UniProt P08173)
Assay: CHRM4 PAMs potentiating acetylcholine calcium signal – CHO-K1 cells, Fluo-8 calcium fluorescence, primary screen (AID 624126)
Settings: CHO-K1 hM4/Gqi5, Fluo-8 calcium fluorescence, ACh EC20; at 3 µM; active compounds read high; 0% = ACh EC20, 100% = maximal ACh

Row | Structure (SMILES) | activation
1 | O=C(NCC1(N2CCCCC2)CCCCC1)c1ccc(OC(F)F)cc1 | inactive: -9.95%
2 | CC(C)(C)n1nnnc1C(c1ccccc1OC(F)(F)F)N1CCC(n2c(=O)[nH]c3ccccc32)CC1 (centres undefined) | inactive: 2.72%
3 | O=C(NCC1(N2CCCCC2)CCCCC1)c1cccc([N+](=O)[O-])c1 | inactive: -4.33%
4 | CSc1ccc(C(=O)NCC2(N3CCOCC3)CCCCC2)cc1 | inactive: -1.49%
5 | N#CC1(Nc2ccccc2)CCN(CCc2ccccc2)CC1 | inactive: 15.8%
6 | O=c1[nH]c2ccccc2n1C1CCN(C(c2ccccc2OC(F)(F)F)c2nnnn2C2CCCC2)CC1 (centres undefined) | inactive: 0.95%
7 | CCN1CCC(Nc2ccc(Cl)cc2)CC1 | inactive: -1.99%
8 | O=C(NCC1(N2CCCCC2)CCCCC1)c1cncc(Br)c1 | inactive: -3.75%
9 | CN1CCC(Nc2cccc(F)c2)CC1 | inactive: -11.2%
10 | CCCOc1ccc(C(=O)NCC2(N(C)C)CCCCC2)cc1OC | inactive: 4.39%
11 | Cc1ccc(C(=O)NCC2(N(C)C)CCCCC2)o1 | inactive: 8.01%
12 | COc1ccc(C(c2nnnn2C2CCCC2)N2CCC(n3c(=O)[nH]c4ccccc43)CC2)cc1 (centres undefined) | inactive: -7.36%
13 | CN(C)c1cccc(C(=O)NCC2(N3CCCCC3)CCCCC2)c1 | inactive: -2.56%
14 | COc1ccc(CN(CCCl)CCCl)cc1Cl | inactive: 10.2%
15 | CCCCn1nnnc1C(c1ccccc1OC(F)(F)F)N1CCC(n2c(=O)[nH]c3ccccc32)CC1 (centres undefined) | inactive: 7.4%
16 | CC(C)c1ccc(NC2CCN(C(=O)OC(C)(C)C)CC2)cc1 | inactive: 8.8%
17 | CCCCn1nnnc1C(c1ccnc2ccccc12)N1CCC(n2c(=O)[nH]c3ccccc32)CC1 (centres undefined) | inactive: -9.96%
18 | CCC(c1nnnn1C(C)(C)C)N1CCC(n2c(=O)[nH]c3ccccc32)CC1 (centres undefined) | inactive: 3.14%
19 | O=C(NCC1(N2CCOCC2)CCCCC1)c1cc(F)c(F)cc1Cl | inactive: 3.74%
20 | COc1cc(OC)c(C(=O)NCC2(N(C)C)CCCCC2)cc1OC | inactive: -2.39%
21 | O=C(NCC1(N2CCOCC2)CCCCC1)c1cc2ccccc2o1 | inactive: 12.6%
22 | Cc1cc(C)cc(N(C(=O)c2ccccc2)C2CCN(C(=O)OC(C)(C)C)CC2)c1 | inactive: -2.77%
23 | O=c1[nH]c2ccccc2n1C1CCN(C(c2ccccc2OC(F)(F)F)c2nnnn2C2CCCCC2)CC1 (centres undefined) | inactive: 0.58%
24 | O=C(NCC1(N2CCCCC2)CCCCC1)c1ccc(Cl)nc1 | inactive: -0.1%
25 | CCCCn1nnnc1C(c1ccc(OC)cc1)N1CCC(n2c(=O)[nH]c3ccccc32)CC1 (centres undefined) | inactive: -7.41%
26 | CCOC(=O)N1CCC(Nc2ccc(OC)cc2)CC1 | inactive: 2.1%
27 | COc1ccc(Cl)cc1C(=O)NCC1(N2CCOCC2)CCCCC1 | inactive: -0.02%

Row | Structure (SMILES) | activation
28 | O=C(OC1CN2CCC1CC2)C1c2ccccc2Oc2ccccc21 (centres undefined) | inactive: -34.7%
29 | O=c1[nH]c2ccccc2n1C1CCN(C(c2cc3ccccc3o2)c2nnnn2C2CCCCC2)CC1 (centres undefined) | inactive: -3.22%
30 | O=C(NCC1(N2CCCCC2)CCCCC1)c1ccc(Cl)s1 | inactive: 4.8%
31 | N#CC1(Nc2ccccc2)CCN(Cc2ccccc2)CC1 | inactive: 3.02%
32 | CCCCn1nnnc1C(c1cccs1)N1CCC(n2c(=O)[nH]c3ccccc32)CC1 (centres undefined) | inactive: -10.1%
33 | CCCCn1nnnc1C(CC)N1CCC(n2c(=O)[nH]c3ccccc32)CC1 (centres undefined) | inactive: -6.9%
34 | O=C(NCC1(N2CCCCC2)CCCCC1)c1cccs1 | inactive: -3.42%
35 | O=C(NCC1(N2CCCCC2)CCCCC1)c1ccc(=O)[nH]c1 | inactive: -0.24%
36 | CCC(c1nnnn1C1CCCC1)N1CCC(n2c(=O)[nH]c3ccccc32)CC1 (centres undefined) | inactive: -6.94%
37 | COc1ccc(C(=O)NCC2(N3CCCCC3)CCCCC2)c(OC)c1OC | inactive: 7.04%
38 | CC(C)(C)OC(=O)N1CCC(N(C(=O)c2ccccc2)c2ccc(F)cc2)CC1 | inactive: 3.59%
39 | COc1ccc(C(=O)NCC2(N3CCCCC3)CCCCC2)cc1 | inactive: -3.75%
40 | Cc1cccc(NC2(C#N)CCN(Cc3ccccc3)CC2)c1 | inactive: -0.29%
41 | CSc1ccccc1C(=O)NCC1(N2CCCCC2)CCCCC1 | inactive: 4.15%
42 | O=c1[nH]c2ccccc2n1C1CCN(C(c2ccccc2)c2nnnn2C2CCCCC2)CC1 (centres undefined) | inactive: -6.9%
43 | O=c1[nH]c2ccccc2n1C1CCN(C(c2cccc3ccccc23)c2nnnn2C2CCCC2)CC1 (centres undefined) | inactive: -0.13%
44 | COc1cc(C(=O)NCC2(N(C)C)CCCCC2)ccc1OC(F)F | inactive: 2.82%
45 | CCOC(=O)N1CCC(Nc2cccc(C)c2)CC1 | inactive: 0.14%
46 | CCOc1ccc(C)cc1CN(CCCl)CCCl | inactive: -41.3%
47 | O=C1CCN(Cc2ccccc2)CC1 | inactive: 0.37%
48 | CC(C)(C)n1nnnc1C(c1ccccc1)N1CCC(n2c(=O)[nH]c3ccccc32)CC1 (centres undefined) | inactive: 3.01%
49 | COc1ccc(NC2CCN(CCc3ccccc3)CC2)c(OC)c1 | inactive: -8.99%
50 | CCOC(=O)N1CCC(Nc2ccc(F)cc2)CC1 | inactive: -4.33%
51 | O=C(NCC1(N2CCCCC2)CCCCC1)c1ccc(F)cc1 | inactive: -0.76%
52 | CCCCn1nnnc1C(c1cc2ccccc2o1)N1CCC(n2c(=O)[nH]c3ccccc32)CC1 (centres undefined) | inactive: -5.36%
53 | O=P1(N(CCCl)CCCl)SCCCS1 | inactive: 2.72%
54 | CCCCOc1ccc(C(=O)NCC2(N3CCOCC3)CCCCC2)cc1 | inactive: -2.02%
